Data: patent US9572881B2, “Halogenated compounds for photodynamic therapy” (Nanoquantum Sciences, Inc., priority 2012, dated 2017)

Tests used:
[1] = Absorption spectra and extinction coefficients of dyes; assay type: physicochemical
Description: Absorption spectra were measured at RT on a Perking Elmer Lambda 35 UV/Vis spectrophotometer. […] The stock solution was diluted (1:2000) and the absorbance was measured in a 5-cm standard quartz cell. All dye concentrations were in the range of 1.1 to 2.0×10^−7 M. The extinction coefficients were calculated according to Lambert-Beer's law.

[2] = background statement; cited from earlier work
bovine erythrocytes = assay: Phototoxicity (glow lamp) and dark toxicity by hemolysis of bovine erythrocytes; assay type: cell-based
Description: Bovine erythrocytes were isolated from blood plasma stored with sodium citrate. 1 mL of bovine blood was treated at centrifuge (3,000 rpm) for 10 min to precipitate erythrocytes. The supernatant was decanted, 2 mL of physiological solution were added, treated and erythrocytes were precipitated with centrifuge. The washing procedure was repeated for 3 times and the precipitated erythrocytes were collected. […] Cells were dye-incubated for 45 minutes at 37° C. in the dark. Then the examined suspensions of cells (erythrocytes) were placed at a distance of 30-cm from a 250 W glow red-lamp equipped with a water-based heat filter and irradiated with occasional stirring. After irradiation, cells were stored at 4° C. for 15 hours. […] The hemolysis level (percentage of hemolyzed cells) was determined as the ratio of absorbances of the supernatant and a solution of 100% hemolysed cells. The 100% hemolysis was taken as the value obtained when the given number of erythrocytes were suspended in distilled water.

In the case of `CC1(C)C(/C=C/C=C/C=C/C=C2\N(CCCCS(=O)(=O)[O-])c3ccc4ccccc4c3C2(C)C)=[N+](CCCCS(=O)(=O)[O-])c2ccc3ccccc3c21.[Na+]` [ICG, Indocyanine green, reference compound], the Absorption max. ([1]; Methanol) is listed as 784 nm, the Absorption max. ([1]; Water) is listed as 780 nm and the absorb light at [2] is listed as roughly 780 nm. The Hemolysis (bovine erythrocytes; Dark, 5 μM) was 1.6%, the Hemolysis (bovine erythrocytes; Dark, 10 μM) was 1.7% and the Hemolysis (bovine erythrocytes; Glow Lamp, 1 μM, exposure 120 min) was 4%. The Hemolysis (bovine erythrocytes; Glow Lamp, 5 μM, exposure 60 min) was 16% and the Hemolysis (bovine erythrocytes; Glow Lamp, 5 μM, exposure 120 min) was 65%.
